# Assay results taken from US12697352B2, “Instructions for composition and sensitivity” (Azura Ophthalmics Ltd., priority 2020, dated 2026).
# Columns and labels:
# [1] = taken by mouth; cited from earlier work
# patients = conditions: one of the ophthalmic studies described
# Source text: In a clinical study three different concentrations were used; 0.1 wt. %, (10 subjects) 0.5 wt. % (12 subjects) and 1 wt. % (26 subjects).
# [2] = long-term topical use of the lotion, person with an open lesion on their scalp; cited from earlier work
Molecule,oral dose that may be toxic [1] [μg per day],concentrations at which the phototoxicity effect is observed (at least as low as) (patients),time to resolution of signs and symptoms of systemic toxicity after discontinuing [2] [days]
[Se] [Selenium],> 400,–,–
selenium disulfide [SeS2],–,about 0.5 wt. %,≤ 10
